Reference: PubChem BioAssay AID624467 (The Scripps Research Institute Molecular Screening Center, 2012)
The entries are a selection whose mix differs from that of the whole data set. Activity calls are given as the source filed them.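 Rule for the calls: active = activation above the mean activation of all test compounds in the run plus 3 SD (cut at about 38% in these data); inactive = the rest.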

Protein sequences, listed by entry. Tags and fused reporters are not part of them.
UniProt Q96RJ0, whole entry: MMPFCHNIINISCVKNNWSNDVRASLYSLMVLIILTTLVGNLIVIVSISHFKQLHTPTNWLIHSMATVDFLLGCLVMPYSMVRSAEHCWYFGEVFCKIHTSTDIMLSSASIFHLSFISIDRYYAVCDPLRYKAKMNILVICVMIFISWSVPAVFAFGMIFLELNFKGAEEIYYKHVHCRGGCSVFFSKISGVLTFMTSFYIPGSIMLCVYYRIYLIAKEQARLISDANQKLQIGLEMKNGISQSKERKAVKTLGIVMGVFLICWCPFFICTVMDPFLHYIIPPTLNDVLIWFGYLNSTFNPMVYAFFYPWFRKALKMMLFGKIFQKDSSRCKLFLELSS

molecular target: Trace amine-associated receptor 1 (Homo sapiens) (UniProt Q96RJ0); test: activators of TAAR1 calcium mobilization – Fluo-8 calcium fluorescence, CHO RD-HGA16 cells, primary screen (AID 624467); details: CHO RD-HGA16 TAAR1, Fluo-8 calcium fluorescence; at 3 µM; hits give high values; vehicle wells 0%, saturating PEA agonist 100%

| SMILES | activation |
| --- | --- |
| Cc1cc(N(CCCl)CCCl)ccc1C=O | inactive: -0.83% |
| CCCN1CCC(Nc2cc(OC)cc(OC)c2)CC1 | inactive: 1.94% |
| O=c1[nH]c2ccccc2n1C1CCN(C(c2ccccc2)c2nnnn2C2CCCC2)CC1 (stereo unspecified) | inactive: 13.3% |
| c1ccc(CN2CCC(Nc3ccccc3)CC2)cc1 | inactive: 4.67% |
| C/C(N)=N\P(=O)(Oc1ccccc1)Oc1ccccc1 | inactive: 1.16% |
| CN(C)C1(CNC(=O)c2cccc(C#N)c2)CCCCC1 | inactive: 0.6% |
| CC(C)(C)n1nnnc1C(c1cccc2ccccc12)N1CCC(n2c(=O)[nH]c3ccccc32)CC1 (stereo unspecified) | inactive: 2.83% |
| CC(C)(C)OC(=O)N1CCC(N(C(=O)c2ccccc2)c2ccc(Cl)cc2)CC1 | inactive: 2.19% |
| N#Cc1ccc(C(=O)NCC2(N3CCCCC3)CCCCC2)cc1 | inactive: 0.48% |
| N/C(=N\O)c1c(N)no[n+]1[O-] | inactive: -0.4% |
| COc1cccc(C(c2nnnn2C(C)(C)C)N2CCC(n3c(=O)[nH]c4ccccc43)CC2)c1OC (stereo unspecified) | inactive: 8.99% |
| CCOC(=O)N1CCC(Nc2ccc(C)cc2)CC1 | inactive: 0.52% |
| CCCCn1nnnc1C(c1cccc(OC)c1OC)N1CCC(n2c(=O)[nH]c3ccccc32)CC1 (stereo unspecified) | inactive: 8.64% |
| O=c1[nH]c2ccccc2n1C1CCN(C(c2cccs2)c2nnnn2C2CCCC2)CC1 (stereo unspecified) | inactive: 26.4% |
| O=C(OC1CN2CCC1CC2)C1c2ccccc2C=Cc2ccccc21 (stereo unspecified) | inactive: 2.68% |
| O=C(NCC1(N2CCOCC2)CCCCC1)c1cc(Br)ccc1Cl | inactive: -1.56% |
| COc1cc(C(=O)NCC2(N3CCOCC3)CCCCC2)cc(OC)c1C | inactive: -0.35% |
| CCCCn1nnnc1C(c1ccccc1)N1CCC(n2c(=O)[nH]c3ccccc32)CC1 (stereo unspecified) | inactive: 9.56% |
| O=c1[nH]c2ccccc2n1C1CCN(C(c2ccnc3ccccc23)c2nnnn2C2CCCC2)CC1 (stereo unspecified) | inactive: 14.4% |
| COc1ccc(C(=O)NCC2(N3CCOCC3)CCCCC2)cc1OC | inactive: -1% |
| O=c1[nH]c2ccccc2n1C1CCN(C(c2cccs2)c2nnnn2C2CCCCC2)CC1 (stereo unspecified) | inactive: 35.3% |

| SMILES | activation |
| --- | --- |
| O=C(NCC1(N2CCCCC2)CCCCC1)c1cncc(Br)c1 | inactive: 1% |
| CN1CCC(Nc2cccc(F)c2)CC1 | inactive: 7.96% |
| CCCOc1ccc(C(=O)NCC2(N(C)C)CCCCC2)cc1OC | inactive: -0.47% |
| Cc1ccc(C(=O)NCC2(N(C)C)CCCCC2)o1 | inactive: 5.55% |
| COc1ccc(C(c2nnnn2C2CCCC2)N2CCC(n3c(=O)[nH]c4ccccc43)CC2)cc1 (stereo unspecified) | inactive: 4.71% |
| CN(C)c1cccc(C(=O)NCC2(N3CCCCC3)CCCCC2)c1 | inactive: -0.52% |
| COc1ccc(CN(CCCl)CCCl)cc1Cl | inactive: 9.62% |
| CC(C)c1ccc(NC2CCN(C(=O)OC(C)(C)C)CC2)cc1 | inactive: 4.64% |
| CCCCn1nnnc1C(c1ccnc2ccccc12)N1CCC(n2c(=O)[nH]c3ccccc32)CC1 (stereo unspecified) | inactive: 17.8% |
| CCC(c1nnnn1C(C)(C)C)N1CCC(n2c(=O)[nH]c3ccccc32)CC1 (stereo unspecified) | inactive: 6.24% |
| O=C(NCC1(N2CCOCC2)CCCCC1)c1cc(F)c(F)cc1Cl | inactive: 10.3% |
| COc1cc(OC)c(C(=O)NCC2(N(C)C)CCCCC2)cc1OC | inactive: 2.57% |
| O=C(NCC1(N2CCCCC2)CCCCC1)c1cccc(C(F)(F)F)c1 | inactive: -1.97% |
| CCCCn1nnnc1C(c1cccc2ccccc12)N1CCC(n2c(=O)[nH]c3ccccc32)CC1 (stereo unspecified) | inactive: 1.73% |
| CN1CCN(CCOC(=O)C(O)(c2ccccc2)c2ccccc2)CC1 | inactive: 1.25% |
| CC(C)c1ccc(C(=O)NCC2(N3CCOCC3)CCCCC2)cc1 | inactive: -1.5% |
| COc1ccc(NC2CCN(C(=O)OC(C)(C)C)CC2)cc1 | inactive: 4.84% |
| COc1cc(C(=O)NCC2(N3CCCCC3)CCCCC2)ccc1OC(F)F | inactive: 1.44% |
| O=C(NCC1(N2CCOCC2)CCCCC1)c1cc(=O)[nH]c2ccccc12 | inactive: 0.66% |
| O=C(NCC1(N2CCCCC2)CCCCC1)c1ccc(OC(F)F)cc1 | inactive: -2.22% |
| CC(C)(C)n1nnnc1C(c1ccccc1OC(F)(F)F)N1CCC(n2c(=O)[nH]c3ccccc32)CC1 (stereo unspecified) | inactive: 5.17% |

| SMILES | activation |
| --- | --- |
| CSc1ccc(C(=O)NCC2(N3CCOCC3)CCCCC2)cc1 | inactive: -0.17% |
| O=C(NCC1(N2CCCCC2)CCCCC1)c1cccc([N+](=O)[O-])c1 | inactive: -0.97% |
| N#CC1(Nc2ccccc2)CCN(CCc2ccccc2)CC1 | inactive: 2.28% |
| O=c1[nH]c2ccccc2n1C1CCN(C(c2ccccc2OC(F)(F)F)c2nnnn2C2CCCC2)CC1 (stereo unspecified) | inactive: -0.24% |
| CCN1CCC(Nc2ccc(Cl)cc2)CC1 | inactive: 2.59% |
| O=c1[nH]c2ccccc2n1C1CCN(C(c2ccccc2)c2nnnn2C2CCCCC2)CC1 (stereo unspecified) | inactive: 30.5% |
| O=c1[nH]c2ccccc2n1C1CCN(C(c2cccc3ccccc23)c2nnnn2C2CCCC2)CC1 (stereo unspecified) | inactive: 0.05% |
| COc1cc(C(=O)NCC2(N(C)C)CCCCC2)ccc1OC(F)F | inactive: 12.9% |
| CCOC(=O)N1CCC(Nc2cccc(C)c2)CC1 | inactive: 6.97% |
| CCOc1ccc(C)cc1CN(CCCl)CCCl | inactive: -0.68% |
| O=C1CCN(Cc2ccccc2)CC1 | inactive: 0.88% |
| CC(C)(C)n1nnnc1C(c1ccccc1)N1CCC(n2c(=O)[nH]c3ccccc32)CC1 (stereo unspecified) | inactive: 11.5% |
| COc1ccc(NC2CCN(CCc3ccccc3)CC2)c(OC)c1 | inactive: 9.38% |
| CCOC(=O)N1CCC(Nc2ccc(F)cc2)CC1 | inactive: -1.39% |
| O=C(NCC1(N2CCCCC2)CCCCC1)c1ccc(F)cc1 | inactive: -2.38% |
| O=P1(N(CCCl)CCCl)SCCCS1 | inactive: 0.18% |
| CCCCn1nnnc1C(c1cc2ccccc2o1)N1CCC(n2c(=O)[nH]c3ccccc32)CC1 (stereo unspecified) | inactive: 3.56% |
| CCCCOc1ccc(C(=O)NCC2(N3CCOCC3)CCCCC2)cc1 | inactive: -1.69% |
| O=C(NCC1(N2CCOCC2)CCCCC1)c1cc2ccccc2o1 | inactive: -3.82% |
| Cc1cc(C)cc(N(C(=O)c2ccccc2)C2CCN(C(=O)OC(C)(C)C)CC2)c1 | inactive: 0.23% |
| O=c1[nH]c2ccccc2n1C1CCN(C(c2ccccc2OC(F)(F)F)c2nnnn2C2CCCCC2)CC1 (stereo unspecified) | inactive: 7.5% |

| SMILES | activation |
| --- | --- |
| O=C(NCC1(N2CCCCC2)CCCCC1)c1ccc(Cl)nc1 | inactive: 3.08% |
| CCCCn1nnnc1C(c1ccc(OC)cc1)N1CCC(n2c(=O)[nH]c3ccccc32)CC1 (stereo unspecified) | inactive: 13.6% |
| CCOC(=O)N1CCC(Nc2ccc(OC)cc2)CC1 | inactive: 2.64% |
| COc1ccc(Cl)cc1C(=O)NCC1(N2CCOCC2)CCCCC1 | inactive: -0.03% |
| O=C(OC1CN2CCC1CC2)C1c2ccccc2Oc2ccccc21 (stereo unspecified) | inactive: 1.2% |
| O=c1[nH]c2ccccc2n1C1CCN(C(c2cc3ccccc3o2)c2nnnn2C2CCCCC2)CC1 (stereo unspecified) | inactive: 6.6% |
| N#CC1(Nc2ccccc2)CCN(Cc2ccccc2)CC1 | inactive: 0.46% |
| O=C(NCC1(N2CCCCC2)CCCCC1)c1ccc(Cl)s1 | inactive: -0.08% |
| CCCCn1nnnc1C(c1cccs1)N1CCC(n2c(=O)[nH]c3ccccc32)CC1 (stereo unspecified) | inactive: 14% |
| O=C(NCC1(N2CCCCC2)CCCCC1)c1cccs1 | inactive: 1.22% |
| CCCCn1nnnc1C(CC)N1CCC(n2c(=O)[nH]c3ccccc32)CC1 (stereo unspecified) | inactive: 21.3% |
| O=C(NCC1(N2CCCCC2)CCCCC1)c1ccc(=O)[nH]c1 | inactive: 2.32% |
| CCC(c1nnnn1C1CCCC1)N1CCC(n2c(=O)[nH]c3ccccc32)CC1 (stereo unspecified) | inactive: 8.44% |
| CC(C)(C)OC(=O)N1CCC(N(C(=O)c2ccccc2)c2ccc(F)cc2)CC1 | inactive: -1.2% |
| COc1ccc(C(=O)NCC2(N3CCCCC3)CCCCC2)c(OC)c1OC | inactive: -0.53% |
| COc1ccc(C(=O)NCC2(N3CCCCC3)CCCCC2)cc1 | inactive: -2.88% |
| Cc1cccc(NC2(C#N)CCN(Cc3ccccc3)CC2)c1 | inactive: 1.66% |
| CSc1ccccc1C(=O)NCC1(N2CCCCC2)CCCCC1 | inactive: -1.38% |
